Literature values as cited in patent US10618982B2, “Process in water for the preparation of butyric esters of hyaluronic acid sodium salt” (priority 2015, dated 2020).

Details: in vivo

In the case of N,N dimethylaminopyridine, the LD50 is given as “tens”.
